Source: US5756545A, “Biphenysulfonamide matrix metal alloproteinase inhibitors” (priority 1997, dated 1998)

Columns and labels:
[1] = target: gelatinase A-catalytic domain; test: gelatinase A catalytic domain hydrolysis of gelatin, GA CD (Gel); assay type: biochemical; conditions: gelatin substrate
[2] = target: gelatinase A-catalytic domain; test: gelatinase A catalytic domain hydrolysis of thiopeptolide, GA CD (T); assay type: biochemical; conditions: thiopeptolide substrate

SMILES | IC50 [1] [nM] | IC50 [2] [nM]
CC(C)[C@H](NS(=O)(=O)c1ccc(-c2cccc(F)c2)cc1)C(=O)O [Example 17, (S)-2-(3'-Fluoro-biphenyl-4-sulfonylamino)-3-methyl-butyric Acid] | 371 | 67
Cc1ccc(-c2ccc(S(=O)(=O)N[C@H](C(=O)O)C(C)C)cc2)cc1 [Example 18, (S)-3-Methyl-2-(4'-methyl-biphenyl-4-sulfonylamino)-butyric Acid] | 5 | 2
CC(C)[C@H](NS(=O)(=O)c1ccc(-c2ccc(C(F)(F)F)cc2)cc1)C(=O)O [Example 19, (S)-3-Methyl-2-(4'-trifluoromethyl-biphenyl-4-sulfonylamino)-butyric Acid] | 75 | 8
